Apparent affinities of Ab-14 variants for a coronavirus HR2 peptide

From the AlphaSeq antibody data of Engelhart et al. 2022 (doi:10.1038/s41597-022-01779-4), copy in the FLAb collection.

Binding partner: SARS-CoV-2 spike HR2 peptide, sequence PDVDLGDISGINAS.

Ab-14 is the parent antibody, in scFv form: VH, then a 15-residue (Gly4Ser)3 linker, then VL. The heavy chain is unchanged in all variants.
VH: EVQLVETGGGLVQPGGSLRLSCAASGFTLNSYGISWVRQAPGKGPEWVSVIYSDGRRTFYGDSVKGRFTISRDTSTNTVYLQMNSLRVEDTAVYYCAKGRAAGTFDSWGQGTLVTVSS
VL: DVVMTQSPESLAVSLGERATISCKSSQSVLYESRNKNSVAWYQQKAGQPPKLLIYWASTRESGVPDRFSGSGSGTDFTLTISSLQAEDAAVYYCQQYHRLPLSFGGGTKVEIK

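Phage display of a naive human antibody library on the peptide gave the parent. Variants in AAYL50 differ from the parent at up to three CDR positions; double and triple changes were sampled at random. The assay is AlphaSeq: two haploid yeast populations carry antibody and antigen on their surface. After mating in shaken culture at 30 °C for 16 h, diploids were selected and their barcode pairs sequenced. A regression on co-assayed BCL2-family reference pairs converts the normalised counts of each replicate to an apparent Kd. Each pool was mated in three replicate cultures.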

Positions count from residue 1 of the parent VL; R34E puts E in place of R.
This list gathers variants with a substitution at R34 (VL, numbered from residue 1).
The Kd shown is the geometric mean over detected replicates; a lower Kd is a better binder.
An entry "nd" has no value in the source: the pair was not observed among the diploids in any replicate. This suggests poor binding but is not conclusive.

For R34E Y97L S103K, the assay gave 1.4 µM (1 of 3 replicates).
For S28V R34P Q95V, the assay gave 14 nM (3 of 3 replicates).
For R34C L100V, the assay gave 11 nM (3 of 3 replicates).
For V29G R34Q H98T, the assay gave 6.2 nM (3 of 3 replicates).
For Q27Y R34V N37C, the assay gave 72 nM (3 of 3 replicates).
For R34I R60H L100C, the assay gave 14 µM (1 of 3 replicates).
For L30W R34H L102K, the assay gave 14 nM (3 of 3 replicates).
For S26I R34V N37R, the assay gave 180 nM (3 of 3 replicates).
For Y31N R34P W56I, the assay gave 450 nM (3 of 3 replicates).
For R34K L100W, the assay gave nd (0 of 3 replicates).
For S25R E32L R34D, the assay gave 66 nM (3 of 3 replicates).
For S28I R34D A57V, the assay gave 110 nM (3 of 3 replicates).
For S28E R34D V39H, the assay gave nd (0 of 3 replicates).
For R34H Q95F L100D, the assay gave 19 nM (3 of 3 replicates).
For V29H R34I S62A, the assay gave 4.4 nM (3 of 3 replicates).
For S33F R34N R99H, the assay gave 410 µM (1 of 3 replicates).
For R34D Q95V H98N, the assay gave nd (0 of 3 replicates).
For Q27S R34K L100H, the assay gave nd (0 of 3 replicates).
For R34G, the assay gave 1.6 nM (3 of 3 replicates).
For R34C, the assay gave 86 nM (3 of 3 replicates).
For K24G R34Q A57D, the assay gave 980 nM (3 of 3 replicates).
For V29K R34G K36V, the assay gave 9.4 nM (3 of 3 replicates).
For R34N K36N R60D, the assay gave 3.3 µM (1 of 3 replicates).
For V29E R34C W56N, the assay gave 3.1 nM (3 of 3 replicates).
For S33G R34M A40C, the assay gave 24 nM (3 of 3 replicates).
For R34K N35Y R99Y, the assay gave 140 nM (3 of 3 replicates).
For R34Q V39S Q96R, the assay gave nd (0 of 3 replicates).
For V29Y E32T R34G, the assay gave 4.6 nM (3 of 3 replicates).
For R34T S38Y Y97V, the assay gave 270 nM (3 of 3 replicates).
For E32V R34H S38K, the assay gave 3.7 µM (2 of 3 replicates).
For V29H Y31A R34F, the assay gave 4.4 nM (3 of 3 replicates).
For R34C A40H H98F, the assay gave 36 µM (1 of 3 replicates).
For R34I N35C P101F, the assay gave nd (0 of 3 replicates).
For R34M N35C A40R, the assay gave nd (0 of 3 replicates).
For R34G A40I T59I, the assay gave 1.2 µM (1 of 3 replicates).
For V29T L30A R34A, the assay gave 7.1 nM (3 of 3 replicates).
For R34T R60Q, the assay gave 29 nM (3 of 3 replicates).
For V29K R34S S38Y, the assay gave 89 nM (1 of 3 replicates).
For R34P S62E L102V, the assay gave 23 nM (3 of 3 replicates).
For S26W R34K S62K, the assay gave 2.2 µM (3 of 3 replicates).
For R34V A40C E61C, the assay gave 39 nM (3 of 3 replicates).
For R34W S62F, the assay gave 7.8 nM (3 of 3 replicates).
For R34H Q95S L102R, the assay gave nd (0 of 3 replicates).
For R34C S38D S62A, the assay gave 130 nM (3 of 3 replicates).
For E32W R34G S62F, the assay gave 16 nM (3 of 3 replicates).
For S26F R34V A57I, the assay gave nd (0 of 3 replicates).

A selection of 5 entries from above:

{"changes": "R34N K36N R60D", "apparent Kd": "3.3 µM", "replicates with signal": "1 of 3"}
{"changes": "V29E R34C W56N", "apparent Kd": "3.1 nM", "replicates with signal": "3 of 3"}
{"changes": "S25R E32L R34D", "apparent Kd": "66 nM", "replicates with signal": "3 of 3"}
{"changes": "S26W R34K S62K", "apparent Kd": "2.2 µM", "replicates with signal": "3 of 3"}
{"changes": "V29H R34I S62A", "apparent Kd": "4.4 nM", "replicates with signal": "3 of 3"}

In this assay the parent's reference entry averaged 4.4 nM; its copy inside this library read 48 nM.
Background: pairings of library AAYL50 with three empty control strains gave a value in 18% of cases (median 15 µM, 5th percentile 970 nM). Values in that range, when seen in few replicates, are hard to tell from nonspecific mating.